{"sequences": {"note": "Chains of the proteins cited; added tags and fusions are not shown. Residues count along the entry.", "UniProt P06276, 29-602": "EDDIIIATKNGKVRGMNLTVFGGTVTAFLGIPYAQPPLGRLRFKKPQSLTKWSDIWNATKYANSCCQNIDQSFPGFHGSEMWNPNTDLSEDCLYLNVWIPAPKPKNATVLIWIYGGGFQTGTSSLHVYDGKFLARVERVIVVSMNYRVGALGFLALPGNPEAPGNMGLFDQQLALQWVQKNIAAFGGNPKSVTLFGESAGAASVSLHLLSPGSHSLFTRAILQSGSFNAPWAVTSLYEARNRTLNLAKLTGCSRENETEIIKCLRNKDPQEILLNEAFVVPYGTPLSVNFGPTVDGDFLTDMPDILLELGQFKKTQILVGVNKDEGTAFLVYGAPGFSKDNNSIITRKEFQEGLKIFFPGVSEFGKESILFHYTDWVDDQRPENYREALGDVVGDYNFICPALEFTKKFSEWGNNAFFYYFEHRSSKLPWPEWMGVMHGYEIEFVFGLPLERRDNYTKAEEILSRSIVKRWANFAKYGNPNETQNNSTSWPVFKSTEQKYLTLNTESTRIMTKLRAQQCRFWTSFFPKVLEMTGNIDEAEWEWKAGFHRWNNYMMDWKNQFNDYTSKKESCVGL"}, "source": "paper PMC2949283", "about": "(The Biochemical journal, 2009)", "biological_target": "HuBChE-Wild Type (Homo sapiens, UniProt P06276)", "experiment": "HuBChE inhibition kinetics", "type": "biochemical"}
{"compound": "CCN(C)C(=O)Oc1cccc([C@H](C)N(C)C)c1", "note": "[Rivastigmine, rivastigmine]", "values": [{"measurement": "Kd", "result": "3.8 ± 0.1", "unit": "µM"}]}
